The values below come from patent publication US20040180925A1, “Dipeptidylpeptidase-IV inhibitor” (priority 2000, published 2004).

Sequences of proteins named here, by UniProt entry; tags and fusion partners are left off. Residues count along the entry.
UniProt P14740, 37-767 limits assumed: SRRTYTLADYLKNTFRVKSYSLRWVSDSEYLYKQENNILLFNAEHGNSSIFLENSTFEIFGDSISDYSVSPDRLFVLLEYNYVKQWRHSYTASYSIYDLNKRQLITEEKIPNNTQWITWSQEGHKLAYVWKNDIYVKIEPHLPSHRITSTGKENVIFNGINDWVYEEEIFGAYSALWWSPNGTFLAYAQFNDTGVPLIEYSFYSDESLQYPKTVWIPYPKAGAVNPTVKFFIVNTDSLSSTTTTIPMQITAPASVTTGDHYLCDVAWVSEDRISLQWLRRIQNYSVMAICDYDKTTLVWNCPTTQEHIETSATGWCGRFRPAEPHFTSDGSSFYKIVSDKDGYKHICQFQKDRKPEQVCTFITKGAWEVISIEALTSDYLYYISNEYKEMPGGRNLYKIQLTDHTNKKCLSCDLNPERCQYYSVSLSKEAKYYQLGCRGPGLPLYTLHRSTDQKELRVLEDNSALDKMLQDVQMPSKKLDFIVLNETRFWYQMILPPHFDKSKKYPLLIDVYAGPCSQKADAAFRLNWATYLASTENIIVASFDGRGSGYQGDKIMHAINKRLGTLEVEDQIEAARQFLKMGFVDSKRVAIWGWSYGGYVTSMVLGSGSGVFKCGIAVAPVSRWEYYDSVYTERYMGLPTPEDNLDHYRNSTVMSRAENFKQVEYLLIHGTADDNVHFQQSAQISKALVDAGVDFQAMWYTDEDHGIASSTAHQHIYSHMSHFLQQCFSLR

For the experiment, the target named is T1, DPP-IV (Rattus norvegicus, UniProt P14740).
T1 construct: The coagulated blood was centrifuged at 3,000 rpm for 20 minutes to separate serum for use in the experiment; from tissue; host or cells: rat serum (blood from the crural aorta, coagulated and centrifuged)
In words: Test for inhibitory action against DPP-IV (rat serum, Gly-Pro-AMC fluorescence). Conditions: Gly-Pro-AMC 50 μmol/L, pH 7.8, room temperature 20 minutes. Type of experiment: biochemical. On the procedure:
Under mild anesthesia with diethylether, a rat was incised at lower left side of the limb, and the crural aorta was cut and blood was collected. The collected blood was immediately ice-cooled. The coagulated blood was centrifuged at 3,000 rpm for 20 minutes to separate serum for use in the experiment. As reaction buffer, an aqueous solution containing HEPES (final concentration of 25 mmol/L) and sodium chloride (final concentration of 140 mmol/L) was prepared so as to give a final pH of 7.8, and used after addition of BSA (final concentration of 1%). An assay was conducted using a black, flat-bottomed 96 well plate. A test sample (2 μL) was added to each well, and the sample was added with rat serum (25 u L) and reaction buffer (25 u L) containing magnesium chloride (80 mmol/L), and the mixture was left stand at room temperature for 5 minutes. […] AMC, which was released by DPP-IV activity, was quantified by measurement of fluorescence at 460 nm which was excited at 390 nm. DPP-IV activity was calculated according to the following equation: […]
F100: Fluorescence intensity of AMC with addition of serum
F0: Fluorescence intensity of AMC without addition of serum
Fs: Fluorescence intensity of AMC with addition of a sample and serum

For the substance “(R)-3-[1-(3-Cyano-2-pyridyl)-4-piperidyl]aminoacetyl-4-thiazolinecarbonitrile dihydrochloride [Compound 204]”, the IC50 was determined as 20 nM.
